Experimental data as given in PubChem BioAssay AID720 (The Scripps Research Institute Molecular Screening Center, 2007).
The entries are a selection whose mix differs from that of the whole data set. Activity calls are given as the source filed them.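 Rule for the calls: active = inhibition above the screen-wide mean inhibition plus 3 SD (cut at about 15% in these data); inactive = the rest.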

The chains behind the UniProt entries cited, without tags or fusion partners.
UniProt P54760, whole entry: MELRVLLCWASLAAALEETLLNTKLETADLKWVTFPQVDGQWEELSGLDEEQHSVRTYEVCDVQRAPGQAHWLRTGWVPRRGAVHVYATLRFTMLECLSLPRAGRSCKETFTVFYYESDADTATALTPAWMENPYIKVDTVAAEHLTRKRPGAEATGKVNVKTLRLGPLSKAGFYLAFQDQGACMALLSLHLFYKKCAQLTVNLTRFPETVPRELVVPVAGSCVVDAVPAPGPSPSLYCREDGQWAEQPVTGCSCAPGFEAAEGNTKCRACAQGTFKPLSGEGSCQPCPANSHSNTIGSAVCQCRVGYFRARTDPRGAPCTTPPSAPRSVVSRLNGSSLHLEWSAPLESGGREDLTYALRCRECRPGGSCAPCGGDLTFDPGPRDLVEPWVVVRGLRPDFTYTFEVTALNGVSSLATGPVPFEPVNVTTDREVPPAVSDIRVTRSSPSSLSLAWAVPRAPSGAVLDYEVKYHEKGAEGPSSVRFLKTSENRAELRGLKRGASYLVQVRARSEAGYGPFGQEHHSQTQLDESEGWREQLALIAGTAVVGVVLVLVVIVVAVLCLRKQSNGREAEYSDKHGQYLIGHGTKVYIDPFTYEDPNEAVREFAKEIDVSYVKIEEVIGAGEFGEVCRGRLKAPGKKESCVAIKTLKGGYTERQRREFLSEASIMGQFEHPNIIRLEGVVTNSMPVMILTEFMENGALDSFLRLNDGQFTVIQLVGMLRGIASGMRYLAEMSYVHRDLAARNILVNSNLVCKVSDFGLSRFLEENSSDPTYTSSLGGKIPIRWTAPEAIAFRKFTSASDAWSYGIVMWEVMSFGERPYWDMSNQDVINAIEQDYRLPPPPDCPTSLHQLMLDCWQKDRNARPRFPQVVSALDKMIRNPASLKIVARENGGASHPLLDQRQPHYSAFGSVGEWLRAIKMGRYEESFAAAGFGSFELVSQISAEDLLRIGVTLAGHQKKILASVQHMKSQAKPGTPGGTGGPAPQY

What follows are compounds tested against Ephrin type-B receptor 4 (Homo sapiens) (UniProt P54760) (assay: EphB4-ephrin-B2 interaction antagonists, primary screen, biochemical, TNYL-RAW peptide probe, fluorescence polarization (AID 720;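 note: 0% = DMSO wells and 100% = excess unlabeled TNYL-RAW peptide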)). Conditions: EphB4 LBD / TNYL-RAW-Alexa532 peptide, at 7 µM, stronger effect = higher value.
COc1ccc(OP(C)(=O)Nc2cccc(F)c2)cc1 (stereo not given) was tested, and the inhibition was inactive: 1.07%. With CP(=O)(NC(=O)Nc1ccccc1)Oc1ccccc1 (stereo not given) the inhibition was inactive: -3.45%. CP(=O)(Nc1ccccn1)Oc1ccc(Cl)cc1 (stereo not given) was tested, and the inhibition was inactive: -0.2%. With CP(=S)(Nn1cnnc1)Oc1ccccc1 (stereo not given) the inhibition was inactive: -0.27%. For COc1ccccc1OP(C)(=O)Nc1c(C)cccc1C (stereo not given), the inhibition was inactive: -4.48%. For Cc1nc2ccc3ccccc3c2s1.O=[N+]([O-])c1cc([N+](=O)[O-])c(O)c([N+](=O)[O-])c1, the inhibition was inactive: 9.95%. For Cc1cc(C)cc(OP(C)(=O)Nc2ccc(C)cc2C)c1 (stereo not given), the inhibition was inactive: -7.68%. With Cc1ccc(C)c(NP(C)(=O)Oc2ccccc2)c1 (stereo not given) the inhibition was inactive: 0.66%. With Cc1cc(C)cc(OP(C)(=O)Nc2ccccn2)c1 (stereo not given) the inhibition was inactive: 2.97%. With CP(=O)(Nc1ccccc1)Oc1ccc(F)cc1 (stereo not given) the inhibition was inactive: 3.6%. In the case of CCN(CC)CCCOC(=O)C(O)(c1ccccc1)C1CCCCC1 (stereo not given), the inhibition was inactive: 1.4%. In the case of CP(=O)(Nc1ccccc1F)Oc1ccccc1 (stereo not given), the inhibition was inactive: 2.21%. For CCOP(C)(=S)SCC(=O)NC(C)(CC)C(=O)O (stereo not given), the inhibition was inactive: -8.4%. CP(=O)(Nc1ccc2c(c1)OCCO2)Oc1ccccc1 (stereo not given) was tested, and the inhibition was inactive: -3.62%. CN(C)CCOC(=O)C(O)(c1ccccc1)C1CCCCC1 (stereo not given) was tested, and the inhibition was inactive: -7.66%. With COc1ccc(OP(C)(=O)Nc2cccc(Br)c2)cc1 (stereo not given) the inhibition was inactive: -3.81%. CP(=O)(OC12CC3CC(CC(C3)C1)C2)OC12CC3CC(CC(C3)C1)C2 was tested, and the inhibition was inactive: -2.06%. COc1ccccc1OP(C)(=O)Nc1c(C)n(C)n(-c2ccccc2)c1=O (stereo not given) was tested, and the inhibition was inactive: -11.5%. With CP(=O)(Oc1ccccc1)N1CCOC1=O (stereo not given) the inhibition was inactive: -1.46%. CCN(CC)CC(O)COC(=O)C(O)(c1ccccc1)C1CCCCC1 (stereo not given) was tested, and the inhibition was inactive: -0.45%. For CC(C)(C)c1ccc(OP(C)(=O)O)cc1, the inhibition was inactive: -1.21%. CP(=O)(Nc1ccc(Cl)cc1)Oc1ccc(F)cc1 (stereo not given) was tested, and the inhibition was inactive: -4.12%. For COc1ccc(OP(C)(=O)Nc2ccccn2)cc1 (stereo not given), the inhibition was inactive: -1.93%. In the case of CN(C)CCOC(=O)C(O)(c1ccccc1)C1CCCC1 (stereo not given), the inhibition was inactive: 1.05%. For CP(=O)(Nc1ccccn1)Oc1ccccc1 (stereo not given), the inhibition was inactive: 7.13%. With COc1ccccc1OP(C)(=O)Nc1ccc(C)cc1C (stereo not given) the inhibition was inactive: -4.07%. In the case of CCc1ccc(OP(C)(=O)O)cc1, the inhibition was inactive: 0.03%. With Cc1c(NP(C)(=O)Oc2ccc(C(C)C)cc2)c(=O)n(-c2ccccc2)n1C (stereo not given) the inhibition was inactive: 0.91%. In the case of COc1ccccc1OP(C)(=O)Nc1ccc(C)c(C)c1 (stereo not given), the inhibition was inactive: 2.15%. Cc1nc2ccc3ccccc3c2o1.O=[N+]([O-])c1cc([N+](=O)[O-])c(O)c([N+](=O)[O-])c1 was tested, and the inhibition was inactive: 7.27%.
